Measured values published in patent US6387406B1, “Copolymer compositions for oral delivery” (Supratek Pharma Inc., priority 1992, dated 2002).

Tested on: C6 glioma cells
Details: i.p. 10, 15, 20 and 25 days after inoculation

COc1cccc2c1C(=O)c1c(O)c3c(c(O)c1C2=O)C[C@@](O)(C(=O)CO)C[C@@H]3O[C@H]1C[C@H](N)[C@H](O)[C@H](C)O1 [Free doxorubicin, doxorubicin]
Median survival: 10.5 days
